{"source": "patent US7723023B2", "about": "“Use of intrinsic reporters of cell signaling for high content drug profiling and toxicity screening” (Mount Sinai School of Medicine, priority 2001, dated 2010)", "system": "serotonin 5-HT2A receptor", "assay": "Early gene expression in mouse somatosensory cortex after drug injection, real-time PCR", "format": "in vivo", "conditions": "1 h after i.p. exposure", "data": [{"smiles": "CCN(CC)C(=O)N[C@H]1C=C2c3cccc4[nH]cc(c34)C[C@H]2N(C)C1", "note": "[lisuride]", "values": [{"measurement": "Induction of the 8 early genes in serotonin 5HT2A receptor gene-knockout mouse", "result": "no induction was observed"}]}]}
